## Yeast mating assay B: variants of the scFv Ab-14

The target is the same throughout: PDVDLGDISGINAS, from the HR2 region of SARS-CoV-2 spike.

Ab-14 is the parent antibody, in scFv form: VH, then a 15-residue (Gly4Ser)3 linker, then VL. The light chain is unchanged in all variants.
VH: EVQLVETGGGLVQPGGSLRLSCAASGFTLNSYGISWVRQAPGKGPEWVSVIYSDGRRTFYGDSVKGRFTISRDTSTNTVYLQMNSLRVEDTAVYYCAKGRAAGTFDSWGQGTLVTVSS
VL: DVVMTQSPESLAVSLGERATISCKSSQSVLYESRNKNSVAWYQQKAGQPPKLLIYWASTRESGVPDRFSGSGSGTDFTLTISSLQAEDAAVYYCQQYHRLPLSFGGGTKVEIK

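The starting antibody came from a phage panning campaign against this peptide. This is the validation round: designs drawn from the data on random variants, tested in the same kind of assay. Their group label is 14H_GP_Gen (GP: Gaussian process model; Gen: genetic algorithm; a sequence that several methods proposed may carry one label only). AlphaSeq pools MATa yeast showing the antibodies with MATalpha yeast showing the peptide. Pairs that bind mate more often; barcode pairs of the diploids are counted by sequencing. Scores were corrected for input abundance and mapped to Kd with protein pairs of known affinity run in the same pool. There are six technical replicates.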

Positions count from residue 1 of the parent VH; T28S puts S in place of T.
Numbers give log10(Kd / nM), so 0 is 1 nM and 3 is 1 µM. Smaller is tighter.
"nd" marks a missing value. The strain was present, yet no cells mated with the target were sequenced in that replicate, which points to weak or no binding.
Nonspecific signal, from three strains lacking the peptide, appeared in 1% of pairings of all heavy chain designs, centred on 2.08 (5% of these signals below 0.84); values are not corrected for it. For each scFv, signals with the empty controls are counted beside the result, with their mean in brackets.

{"changes": "T28S+R100T+A101Q", "log10 Kd, replicates": "-0.23 -0.25 -0.39 -0.33 0.25 -0.17", "empty controls": "0/18"}
{"changes": "G26M+T28D+F59A", "log10 Kd, replicates": "0.99 0.75 0.79 0.81 0.93 0.78", "empty controls": "0/18"}
{"changes": "T28E+G61I+R100W+A101T", "log10 Kd, replicates": "0.74 0.03 0.11 0.90 1.60 0.45", "empty controls": "0/18"}
{"changes": "T28D+G61A+S63Q+R100K+A101T", "log10 Kd, replicates": "0.48 0.18 0.10 0.04 0.15 0.07", "empty controls": "2/18 (3.84)"}
{"changes": "T28Q+R100E+S107K", "log10 Kd, replicates": "1.52 1.31 1.08 0.99 1.13 1.42", "empty controls": "0/18"}
{"changes": "G26K+T28E+S53A+R100E", "log10 Kd, replicates": "1.19 1.40 1.20 0.72 0.76 1.95", "empty controls": "0/18"}
{"changes": "T28S+S31E+S63R+A101N", "log10 Kd, replicates": "-0.08 0.22 0.33 0.30 -0.15 0.44", "empty controls": "0/18"}
{"changes": "T28D+G61A+S63T+A101T", "log10 Kd, replicates": "-0.32 -0.07 -0.20 -0.32 -0.32 -0.04", "empty controls": "0/18"}
{"changes": "T28E+S31E+R100Q+S107A", "log10 Kd, replicates": "nd nd nd nd nd nd", "empty controls": "0/18"}
{"changes": "T28N+G61L+A101T", "log10 Kd, replicates": "nd nd 0.97 1.12 1.41 1.01", "empty controls": "0/18"}
{"changes": "T28N+G61I+R100W+A101T", "log10 Kd, replicates": "1.87 1.05 0.93 1.34 2.25 1.57", "empty controls": "0/18"}
{"changes": "T28N+G61A+S63K+A101Q", "log10 Kd, replicates": "nd nd nd nd nd nd", "empty controls": "0/18"}
{"changes": "T28W+S31E+G61H+A101T+S107T", "log10 Kd, replicates": "0.82 1.37 0.80 0.54 0.37 0.65", "empty controls": "0/18"}
{"changes": "T28E+S31M+R100E", "log10 Kd, replicates": "1.19 0.87 1.15 1.19 0.90 1.19", "empty controls": "0/18"}
{"changes": "T28D+R100Q+S107M", "log10 Kd, replicates": "1.20 0.79 0.69 1.22 1.21 0.78", "empty controls": "2/18 (3.17)"}
{"changes": "T28D+S31E+R100T", "log10 Kd, replicates": "0.93 -0.31 -0.61 -0.62 -0.59 -0.30", "empty controls": "0/18"}
{"changes": "T28Q+S31D+A101Q", "log10 Kd, replicates": "1.00 0.84 0.69 0.56 0.88 0.82", "empty controls": "0/18"}
{"changes": "T28F+S31E+A101N", "log10 Kd, replicates": "nd 0.45 0.53 0.65 2.84 0.82", "empty controls": "1/18 (1.99)"}
{"changes": "N30E+R100Q+S107K", "log10 Kd, replicates": "nd 1.65 1.88 nd 1.79 nd", "empty controls": "1/18 (2.68)"}
{"changes": "T28S+R56K+G61S+R100K", "log10 Kd, replicates": "0.50 0.34 0.00 0.41 0.60 0.40", "empty controls": "0/18"}
{"changes": "G26M+T28D+G61Q+R100N", "log10 Kd, replicates": "nd nd nd nd nd nd", "empty controls": "1/18 (1.64)"}
{"changes": "T28P+S31E+R100E", "log10 Kd, replicates": "0.39 -0.47 -0.18 0.11 0.76 0.15", "empty controls": "0/18"}
{"changes": "T28D+G61A+S63Q", "log10 Kd, replicates": "0.92 0.16 0.58 0.21 0.67 0.66", "empty controls": "1/18 (2.85)"}

Picked from the list: the 2 lowest averages where every replicate gave a value.

{"changes": "T28D+S31E+R100T", "log10 Kd, replicates": "0.93 -0.31 -0.61 -0.62 -0.59 -0.30", "empty controls": "0/18"}
{"changes": "T28D+G61A+S63T+A101T", "log10 Kd, replicates": "-0.32 -0.07 -0.20 -0.32 -0.32 -0.04", "empty controls": "0/18"}

The authors' rule: three or more of the six replicates give a measured affinity, fewer mean a poor binder.
The range of this assay differs from that of the first round, and the authors advise against merging the two.
The parent sequence was in this pool as ten entries: three were never detected, three once, and four in most replicates, with averages from 0.34 to 2.37.

Values reported by Li et al. 2023, doi:10.1038/s41467-023-39022-2 (FLAb copy).